The numbers were not newly measured in patent US20230041211A1, “DECREASING TOXICITY OF TERPENES AND INCREASING THE PRODUCTION POTENTIAL IN MICRO-ORGANISMS” (BASF SE, priority 2019, published 2023), which cites them from elsewhere.

For the data set the following is noted: Table 3B; cited from earlier work.

Consider Butanol, for which the loqP is given as 0.88.
